From US10202378B2, “Therapeutic compounds and uses thereof” (GENENTECH, INC., priority 2015, dated 2019) come the findings set out here.

For orientation: IC50 means the concentration that gives 50% inhibition.

The target of one test is TAF1-BD1 (Homo sapiens, UniProt P21675). Nature of the test: TAF1-BD1 TR-FRET Binding Assay. The note with it: read-out: TAF1-BD1 HTRF IC50. The method, then:
IC50 Measurements for Inhibitors Using TAF1-BD1 TR-FRET Binding Assay
His/Flag epitope tagged TAF1-BD11381-1497 was cloned, expressed, and purified to homogeneity. TAF1-BD binding and inhibition was assessed by monitoring the engagement of a biotinylated small molecule compound 1000 with the target using the TR-FRET assay technology (Perkin-Elmer). Specifically, in a 384 well ProxiPlate, TAF1-BDI (0.08 uM final) in 50 mM HEPES (pH 7.5; final), 50 mM NaCl (final), 1 mM TCEP (final), 0.1 mg/mL BSA (final), and 0.069 mM Brij-35 (final) was added either in the presence of DMSO (final 0.2% DMSO) or compound dilution series in DMSO. After a 10 minute incubation at room temperature, biotin-ligand (0.08 uM final) was added. After 10 minutes incubation at room temperature, a mixture Eu-W1024 Anti-6×His antibody (Perkin Elmer ADO 110) and SureLight™ Streptavidin-Allophycocyanin (SA-APC, Perkin Elmer CR130-100) were added to final concentrations of 0.2 nM antibody and 0.05 uM SA-APC, respectively. After forty minutes of equilibration at room temperature, the plates were read on an Envision instrument and IC50s calculated using a four parameter logistic model (XLFIT).
In general terms: TR-FRET usually uses a lanthanide donor and a delayed reading to cut background.

In another test the target is TAF1-BD2 (Homo sapiens, UniProt P21675). Put plainly: TAF1-BD2 TR-FRET Binding Assay. The note with it: read-out: TAF1-BD2 HTRF IC50. The procedure:
IC50 Measurements for Inhibitors Using TAF1-BD2 TR-FRET Binding Assay
His/Flag epitope tagged TAF1-BD21504-1635 was cloned, expressed, and purified to homogeneity. TAF1-BD2 binding and inhibition was assessed by monitoring the engagement of a biotinylated small molecule compound 1000 with the target using the TR-FRET assay technology (Perkin-Elmer). Specifically, in a 384 well ProxiPlate, TAF1-BD2 (0.012 uM final) in 50 mM HEPES (pH 7.5; final), 50 mM NaCl (final), 1 mM TCEP (final), 0.1 mg/mL BSA (final), and 0.069 mM Brij-35 (final) was added either in the presence of DMSO (final 0.2% DMSO) or compound dilution series in DMSO. After a 10 minute incubation at room temperature, biotin-ligand (0.04 uM final) was added. After 10 minutes incubation at room temperature, a mixture Eu-W1024 Anti-6×His antibody (Perkin Elmer AD0110) and SureLight™ Streptavidin-Allophycocyanin (SA-APC, Perkin Elmer CR130-100) were added to a final concentration of 0.2 nM antibody and 0.025 uM SA-APC, respectively. After forty minutes of equilibration at room temperature, the plates were read on an Envision instrument and IC50s calculated using a four parameter logistic model (XLFIT).

As for `Cc1[nH]c2c(=O)n(C)cc(C#CC(O)(c3ccccc3)C(F)(F)F)c2c1-c1nnc(C(C)C)o1` (single isomer, unassigned) [Example 94a, 3-(5-isopropyl-1,3,4-oxadiazol-2-yl)-2,6-dimethyl-4-(4,4,4-trifluoro-3-hydroxy-3-phenyl-but-1-ynyl)-1H-pyrrolo[2,3-c]pyridin-7-one], on TAF1-BD1, the IC50 worked out at 192 nM.

Consider `Cc1[nH]c2c(=O)n(C)cc(C#CC(O)(c3ccccc3)C(F)(F)F)c2c1-c1nnc(C(C)C)o1` (single isomer, unassigned) [Example 94b, 3-(5-isopropyl-1,3,4-oxadiazol-2-yl)-2,6-dimethyl-4-(4,4,4-trifluoro-3-hydroxy-3-phenyl-but-1-ynyl)-1H-pyrrolo[2,3-c]pyridin-7-one], for which the values for the IC50 on TAF1-BD1 and on TAF1-BD2 were 949 nM and 126 nM, respectively.

As for `Cc1[nH]c2c(=O)n(C)cc(C#CC(O)(c3ccccc3)C(F)(F)F)c2c1-c1nnc(CN(C)C)o1` (single isomer, unassigned) [Example 95a, 3-[5-[(dimethylamino)methyl]-1,3,4-oxadiazol-2-yl]-2,6-dimethyl-4-(4,4,4-trifluoro-3-hydroxy-3-phenyl-but-1-ynyl)-1H-pyrrolo[2,3-c]pyridin-7-one], the IC50 at TAF1-BD1 was 920 nM; on TAF1-BD2, 143 nM.

On to `Cc1[nH]c2c(=O)n(C)cc(C#CC(O)(c3ccccc3)C(F)(F)F)c2c1-c1nnc(CN(C)C)o1` (single isomer, unassigned) [Example 95b, 3-[5-[(dimethylamino)methyl]-1,3,4-oxadiazol-2-yl]-2,6-dimethyl-4-(4,4,4-trifluoro-3-hydroxy-3-phenyl-but-1-ynyl)-1H-pyrrolo[2,3-c]pyridin-7-one], for which the IC50 on TAF1-BD1 came out at 211 nM.

On to `Cc1[nH]c2c(=O)n(C)cc(C#CC(C)(O)C3CC3)c2c1-c1nnc(CN(C)C)o1` (single isomer, unassigned) [Example 97a, 4-(3-cyclopropyl-3-hydroxy-but-1-ynyl)-3-[5-[(dimethylamino)methyl]-1,3,4-oxadiazol-2-yl]-2,6-dimethyl-1H-pyrrolo[2,3-c]pyridin-7-one], for which the IC50 was 1240 nM at TAF1-BD1 and 385 nM on TAF1-BD2.

As to `Cc1[nH]c2c(=O)n(C)cc(C#CC(C)(O)C3CC3)c2c1-c1nnc(CN(C)C)o1` (single isomer, unassigned) [Example 97b, 4-(3-cyclopropyl-3-hydroxy-but-1-ynyl)-3-[5-[(dimethylamino)methyl]-1,3,4-oxadiazol-2-yl]-2,6-dimethyl-1H-pyrrolo[2,3-c]pyridin-7-one], the IC50 at TAF1-BD1 was determined as 205 nM; on TAF1-BD2 it was 30.8 nM.

For `CCOC(=O)c1c(C)[nH]c2c(=O)n(C)cc(C#CC(C)(O)Cc3ccccc3)c12` (stereo not drawn) [Example 16, ethyl 4-(3-hydroxy-3-methyl-4-phenyl-but-1-ynyl)-2,6-dimethyl-7-oxo-1H-pyrrolo[2,3-c]pyridine-3-carboxylate], the IC50 on TAF1-BD1 is 212 nM; at TAF1-BD2, 38.8 nM.

With `CCOC(=O)c1c(C)[nH]c2c(=O)n(C)cc(C#CC(C)(O)c3ccncc3)c12` (stereo not drawn) [Example 27, ethyl 4-[3-hydroxy-3-(4-pyridyl)but-1-ynyl]-2,6-dimethyl-7-oxo-1H-pyrrolo[2,3-c]pyridine-3-carboxylate], the IC50 at TAF1-BD1 turned out to be 338 nM; on TAF1-BD2, 89.9 nM.

In the case of `CCOC(=O)c1c(C)[nH]c2c(=O)n(C)cc(C#CC3(O)CCOC3)c12` (stereo not drawn) [Example 31], the IC50 was found to be 511 nM on TAF1-BD1 and 40.8 nM at TAF1-BD2.

Regarding `CCOC(=O)c1c(C)[nH]c2c(=O)n(C)cc(C#C[C@](C)(O)c3cc(C)on3)c12` [Example 34, ethyl 4-[(3S)-3-hydroxy-3-(5-methylisoxazol-3-yl)but-1-ynyl]-2,6-dimethyl-7-oxo-1H-pyrrolo[2,3-c]pyridine-3-carboxylate], the values for the IC50 at TAF1-BD1 and at TAF1-BD2 were 595 nM and 286 nM, respectively.

Turning to `CCOC(=O)c1c(C)[nH]c2c(=O)n(C)cc(C#C[C@@](C)(O)c3cc(C)on3)c12` [Example 38, ethyl 4-[(3R)-3-hydroxy-3-(5-methylisoxazol-3-yl)but-1-ynyl]-2,6-dimethyl-7-oxo-1H-pyrrolo[2,3-c]pyridine-3-carboxylate], on TAF1-BD1, the IC50 came to 136 nM.

For the compound `CCOC(=O)c1c(C)[nH]c2c(=O)n(C)cc(C#CC(C)(O)c3ccccc3)c12` (stereo not drawn) [Example 80, ethyl 4-(3-hydroxy-3-phenyl-but-1-ynyl)-2,6-dimethyl-7-oxo-1H-pyrrolo[2,3-c]pyridine-3-carboxylate], the IC50 on TAF1-BD1 worked out at 243 nM; at TAF1-BD2 it was 22.6 nM.

Regarding `CCOC(=O)c1c(C)[nH]c2c(=O)n(C)cc(C#CC(O)(c3cc(C)cc(O)c3)C(F)(F)F)c12` (stereo not drawn) [Example 85, ethyl 2,6-dimethyl-7-oxo-4-[4,4,4-trifluoro-3-hydroxy-3-(3-hydroxy-5-methyl-phenyl)but-1-ynyl]-1H-pyrrolo[2,3-c]pyridine-3-carboxylate], the values for the IC50 at TAF1-BD1 and at TAF1-BD2 were 395 nM and 63.7 nM, respectively.

Regarding `Cc1[nH]c2c(=O)n(C)cc(C#CC(C)(O)C3CC3)c2c1C(=O)OCc1cccc(CO)c1` (stereo not drawn) [Example 106, [3-(hydroxymethyl)phenyl]methyl 4-(3-cyclopropyl-3-hydroxy-but-1-ynyl)-2,6-dimethyl-7-oxo-1H-pyrrolo[2,3-c]pyridine-3-carboxylate], the IC50 was determined as 166 nM on TAF1-BD1 and 37.2 nM on TAF1-BD2.

As to `Cc1[nH]c2c(=O)n(C)cc(C#CC(C)(C)O)c2c1C(=O)OCc1cccnc1` [Example 114, 3-pyridylmethyl 4-(3-hydroxy-3-methyl-but-1-ynyl)-2,6-dimethyl-7-oxo-1H-pyrrolo[2,3-c]pyridine-3-carboxylate], the IC50 worked out at 304 nM on TAF1-BD1 and 48.3 nM on TAF1-BD2.

Consider `Cc1ccc(COC(=O)c2c(C)[nH]c3c(=O)n(C)cc(C#CC(C)(C)O)c23)cc1` [Example 117, p-tolylmethyl 4-(3-hydroxy-3-methyl-but-1-ynyl)-2,6-dimethyl-7-oxo-1H-pyrrolo[2,3-c]pyridine-3-carboxylate], for which the IC50 amounted to 128 nM on TAF1-BD1 and 39.7 nM at TAF1-BD2.

`Cc1ccccc1COC(=O)c1c(C)[nH]c2c(=O)n(C)cc(C#CC(C)(O)CO)c12` (stereo not drawn) [Example 129, o-tolylmethyl 4-(3,4-dihydroxy-3-methyl-but-1-ynyl)-2,6-dimethyl-7-oxo-1H-pyrrolo[2,3-c]pyridine-3-carboxylate]: the results for the IC50 at TAF1-BD1 and at TAF1-BD2 were 274 nM and 41.3 nM, respectively.

On to `Cc1[nH]c2c(=O)n(C)cc(C#CC(C)(C)O)c2c1C(=O)OC(C)C` [Example 131, isopropyl 4-(3-hydroxy-3-methyl-but-1-ynyl)-2,6-dimethyl-7-oxo-1H-pyrrolo[2,3-c]pyridine-3-carboxylate], for which the IC50 on TAF1-BD1 is 360 nM; at TAF1-BD2, 48.3 nM.

Regarding `Cc1[nH]c2c(=O)n(C)cc(C#CC(C)(C)O)c2c1C(=O)OCC1CCN(C)CC1` [Example 143, (1-methyl-4-piperidyl)methyl 4-(3-hydroxy-3-methyl-but-1-ynyl)-2,6-dimethyl-7-oxo-1H-pyrrolo[2,3-c]pyridine-3-carboxylate], the IC50 was found to be 1870 nM at TAF1-BD1 and 74.8 nM on TAF1-BD2.

Take `CCCC(C)(C)OC(=O)c1c(C)[nH]c2c(=O)n(C)cc(C#CC(C)(C)O)c12` [Example 147, 1,1-dimethylbutyl 4-(3-hydroxy-3-methyl-but-1-ynyl)-2,6-dimethyl-7-oxo-1H-pyrrolo[2,3-c]pyridine-3-carboxylate]: the figures for the IC50 on TAF1-BD1 and at TAF1-BD2 were 331 nM and 38.8 nM, respectively.

As for `Cc1[nH]c2c(=O)n(C)cc(C#CC(C)(C)O)c2c1C(=O)OCC1CCCCC1` [Example 153, cyclohexylmethyl 4-(3-hydroxy-3-methyl-but-1-ynyl)-2,6-dimethyl-7-oxo-1H-pyrrolo[2,3-c]pyridine-3-carboxylate], the IC50 on TAF1-BD1 amounted to 85.3 nM; on TAF1-BD2 it was 22.6 nM.

`Cc1[nH]c2c(=O)n(C)cc(C#CC(C)(C)O)c2c1C(=O)OC1CCCCC1` [Example 159, cyclohexyl 4-(3-hydroxy-3-methyl-but-1-ynyl)-2,6-dimethyl-7-oxo-1H-pyrrolo[2,3-c]pyridine-3-carboxylate]: the IC50 is 295 nM on TAF1-BD1 and 36.9 nM at TAF1-BD2.

Regarding `Cc1[nH]c2c(=O)n(C)cc(C#CC(C)(O)C3CC3)c2c1-c1nnc(CN(C)C)o1` (stereo not drawn) [Example 185, 4-(3-cyclopropyl-3-hydroxy-but-1-ynyl)-3-[5-[(dimethylamino)methyl]-1,3,4-oxadiazol-2-yl]-2,6-dimethyl-1H-pyrrolo[2,3-c]pyridin-7-one], at TAF1-BD1, the IC50 worked out at 324 nM.
